Data on two compounds can be found in patent US20240417395A1, “DUAL ANTAGONIST AND USE THEREOF” (NICOYA THERAPEUTICS (SHANGHAI) CO., LTD, priority 2021, published 2024).

Protein sequences, listed by entry. Tags and fused reporters are not part of them. Residues count along the entry.
UniProt P25101, 21-427 limits assumed: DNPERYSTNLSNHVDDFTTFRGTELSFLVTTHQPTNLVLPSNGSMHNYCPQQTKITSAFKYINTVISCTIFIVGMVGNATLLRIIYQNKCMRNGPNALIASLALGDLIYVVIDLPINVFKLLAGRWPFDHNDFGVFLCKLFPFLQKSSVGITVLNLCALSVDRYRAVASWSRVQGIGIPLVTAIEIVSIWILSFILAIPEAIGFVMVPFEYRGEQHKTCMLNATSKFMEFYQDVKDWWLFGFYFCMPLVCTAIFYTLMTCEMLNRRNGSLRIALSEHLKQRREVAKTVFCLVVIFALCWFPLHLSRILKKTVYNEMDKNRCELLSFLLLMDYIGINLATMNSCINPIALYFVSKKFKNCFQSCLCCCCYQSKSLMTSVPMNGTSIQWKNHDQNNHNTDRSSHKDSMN

Read-outs that look alike come from different tables or passages of the source.

The target of one data set is AT1 (Homo sapiens (Human), UniProt P30556). The data set can be described thus: Calcium flux assay on AT1 cell line. Format: cell-based. The following applies: AT1/HEK293, calcium flux, angiotensin II agonist. (Calcium flux is commonly read through the fluorescence of an indicator in the cells.)
The next data set has as its target ETa (Homo sapiens (Human), UniProt P25101). The data set can be described thus: Calcium flux assay on ETa cell line. Conditions: ETa/HEK293, calcium flux, endothelin-1 agonist.
The nature of data set [1]: Experiment on water solubility (HPLC-UV). Format: physicochemical.
[2] abbreviates: read-out: IC50 activity against AT1 (class).
Where [3] appears, read: read-out: IC50 activity against ETa (class).

In the case of `CCCCC1=N[C@@]2(C[C@H]3C[C@H]3C2)C(=O)N1Cc1ccc(-c2ccccc2S(=O)(=O)Nc2noc(C)c2C)c(CN(C)C(=O)CC(C)(C)C)c1` (relative stereo), the IC50 at AT1 (setting [2]) was 10 to 100 nM; at AT1 (read-out: IC50 against AT1), 26.8 nM; on ETa (setting [3]), 10 to 100 nM; on ETa (read-out: IC50 against ETa) it was 14.8 nM. In addition, the “Solubility FaSSGF (pH1.6)” value in data set [1] (FaSSGF (pH1.6)) amounted to 0.12 mg/mL. Further, the “Solubility FaSSIF (pH6.5)” value in data set [1] (FaSSIF (pH6.5)) is on record as 0.19 mg/mL. The “Solubility FeSSIF (pH5.0)” value in data set [1] (FeSSIF (pH5.0)) is 0.06 mg/mL. Moreover, the “Solubility pH7.4” value in data set [1] (pH7.4) is on record as 0.41 mg/mL.

As for `CCCCc1nn(C2CC2)c(=O)n1Cc1ccc(-c2ccccc2S(=O)(=O)Nc2noc(C)c2C)c(COCC)c1`, the IC50 at AT1 (setting [2]) was 1 to 10 nM; at AT1 (read-out: IC50 against AT1), 6.14 nM; at ETa (setting [3]), 10 to 100 nM; at ETa (read-out: IC50 against ETa), 23.6 nM.

One may read the IC50 as the concentration at which inhibition is half-maximal.
